Laboratory results published in PubChem BioAssay AID1974 (The Scripps Research Institute Molecular Screening Center, 2009).
Only a part is listed here, and it is no random draw. The source made the active and inactive calls.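 How the source made its calls: active means inhibition above the campaign mean inhibition plus 3 SD (cut at about 35% in these data); inactive means the rest.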

Chains of the proteins cited; added tags and fusions are not shown. Lines headed by an entry give the natural chain unless they say otherwise; changes in a name come on top.
UniProt P78417: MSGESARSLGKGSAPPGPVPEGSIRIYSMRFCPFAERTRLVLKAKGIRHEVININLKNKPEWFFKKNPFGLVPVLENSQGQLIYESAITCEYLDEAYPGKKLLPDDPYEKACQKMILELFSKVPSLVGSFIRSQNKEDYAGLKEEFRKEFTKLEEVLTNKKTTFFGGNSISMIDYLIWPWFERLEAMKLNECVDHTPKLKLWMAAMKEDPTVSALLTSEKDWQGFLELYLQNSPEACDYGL

target: Glutathione S-transferase omega-1 (Homo sapiens) (UniProt P78417); test: inhibitors of recombinant GSTO1, primary screen, counter-screen for RBBP9 inhibitor project, biochemical, fluorescence polarization (AID 1974); details: recombinant GSTO1, activity-based probe fluorescence polarization; at 5.96 µM; stronger effect = higher value;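 further: 0% = GSTO1-1 with DMSO and 100% = wells lacking GSTO1-1 enzyme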

Compound	inhibition
COc1ccc(N/C(=N/P(=O)(N2CCOCC2)N2CCOCC2)N2CCOCC2)cc1	inactive: -0.26%
Cc1c2c(nc3ccccc13)SC(C(Cl)Cl)C2 (configuration not stated)	inactive: -2.67%
Cc1cc(=O)[nH]c(N[N+](=O)[O-])n1	inactive: 0.51%
O=C(OC1CN2CCC1CC2)C12CC3CC(CC(C3)C1)C2 (configuration not stated)	inactive: -1.42%
COc1cc(I)ccc1[As](=O)(O)O	inactive: 1.13%
COc1ccc2nc(NP(=O)(c3ccccc3)c3ccccc3)sc2c1	inactive: -1.11%
ClCCSc1nnc(-c2cccnc2)o1	inactive: 0.54%
CC(C)c1ccc(OP(=O)(Nc2ccccn2)Oc2ccccc2F)cc1 (configuration not stated)	inactive: -1.55%
O=[N+]([O-])c1cc([N+](=O)[O-])c(-c2ccn[nH]2)s1	inactive: 28.1%
CCN(CC)C(=S)SC(NC=O)C(Cl)(Cl)Cl (configuration not stated)	inactive: -3.56%
CC(C)NC(=O)NP(=O)(Oc1ccccc1)Oc1ccccc1	inactive: 6.62%
C[As](=O)(O)c1cccc(C(=O)O)c1	inactive: 5.39%
O=[As](O)(c1ccc(O)cc1)c1ccccc1O	inactive: -3.27%
Cc1ccc(OP(=O)(Nc2ccc([N+](=O)[O-])cn2)Oc2ccc(C)cc2)cc1	inactive: -0.85%
Cc1ccc2nc3c(c(C)c2c1)CC(C(Cl)Cl)S3 (configuration not stated)	inactive: 0.45%
CCOC(=O)Nc1cccc([As](=O)(O)O)c1	inactive: 3.32%
Cc1cc(SC(NC=O)C(Cl)(Cl)Cl)ncn1 (configuration not stated)	inactive: -4.92%
O=P(Nc1ccccn1)(c1cccc2ccccc12)c1cccc2ccccc12	inactive: 0.95%
CCOC(=O)Nc1ccc([As](=O)(O)O)c(O)c1	inactive: 5.72%
Cc1cc(SC(NC(=O)c2ccccc2)C(Cl)(Cl)Cl)nc(C(C)C)n1 (configuration not stated)	inactive: 2.97%
O=C(OC1CN2CCC1CC2)c1cccc([N+](=O)[O-])c1 (configuration not stated)	inactive: 3.47%
CCOC(=O)c1ccc(NC(=O)C(C)(CCl)SC)cc1 (configuration not stated)	inactive: -4.08%
CCC(C)N(CC(C)C)C(=S)SC(NC(C)=O)C(Cl)(Cl)Cl (configuration not stated)	inactive: -44.4%
COP1(=S)c2c(C)nn(CCC#N)c2N=C(c2ccc(F)cc2)N1C (configuration not stated)	inactive: -1.75%
O=C(Nc1ccncc1[N+](=O)[O-])c1ccc([N+](=O)[O-])cc1[N+](=O)[O-]	inactive: 9.63%
O=C(COc1ccccc1)OC1CN2CCC1CC2 (configuration not stated)	inactive: -4.22%

Compound	inhibition
COc1ccccc1CNC(=O)COC(=O)C(O)(c1ccccc1)c1ccccc1	inactive: 1.58%
CN(C(=O)Cc1ccc(Cl)c(Cl)c1)[C@@H]1CCCC[C@H]1N1CCCC1	inactive: 5.66%
CC(C)/C=N\N=C(\N)N[N+](=O)[O-]	inactive: 13.3%
CC1(CBr)Cn2c(nc3ccccc3c2=O)S1 (configuration not stated)	inactive: 3.28%
O=[As](O)(c1ccccc1Br)c1ccccc1Br	inactive: -2.73%
CCOP(=O)(NC(=NC(C)c1ccccc1)NC(C)c1ccccc1)OCC (configuration not stated)	inactive: 9.51%
CCC1=CC2Cc3nc4ccc(Cl)cc4c(N)c3C(C1)C2 (configuration not stated)	inactive: -0.22%
O=P1(Nc2ccccn2)COc2ccccc2OC1	inactive: 8.76%
CN(CCCl)Cc1cc(Cl)c(NC2=NCCN2)c(Cl)c1	inactive: 5.16%
CCOP(=O)(Nc1ccc(C)cn1)OCC	inactive: 8.04%
CC(C)(C)C(=O)NC(Sc1ncccn1)C(Cl)(Cl)Cl (configuration not stated)	inactive: 10.2%
Clc1n[nH]nc1-c1nn[nH][15n]1	inactive: 0.44%
O=P1(Nc2ncccn2)COc2ccccc2OC1	inactive: 0.72%
Nc1cccc([As](=O)(O)c2ccccc2)c1	inactive: -16.8%
O=P1(Nc2ccc(Br)cn2)COc2ccccc2OC1	inactive: 3.17%
O=[As](O)(c1cccs1)c1cccs1	inactive: 0.71%
Cc1ccc(OCC(=O)OC2CN3CCC2CC3)cc1 (configuration not stated)	inactive: -7.73%
Cc1ccc(C(=O)OC2CN3CCC2CC3)cc1 (configuration not stated)	inactive: 4.15%
CC1CCC(C(C)C)C(OP(=O)(Nc2ccccn2)c2ccccc2)C1 (configuration not stated)	inactive: 2.33%
Cc1nn(-c2ccccc2)c2c1P(=O)(N1CCOCC1)N(C)C(c1ccccc1)=N2 (configuration not stated)	inactive: -2.12%
CN(C)C1(CNC(=O)c2ccc(S(C)(=O)=O)cc2)CCCCC1	inactive: 5.69%
O=C(/C=C/c1ccccc1)OC1CN2CCC1CC2 (configuration not stated)	inactive: -2.6%
NC(=O)Nc1ccc([As](=O)(O)O)cc1	inactive: 5.41%
CN(C(=O)Cc1ccccc1)[C@@H]1CC[C@]2(CCCO2)C[C@H]1N1CCCC1	inactive: 8.17%
CCOP1(=S)c2c(C)nn(CCC#N)c2N=C(c2ccc(F)cc2)N1C (configuration not stated)	inactive: -3.29%
N#CCCN(C(=O)COC(=O)C(O)(c1ccccc1)c1ccccc1)c1ccc(F)cc1	inactive: -9.29%

Compound	inhibition
CN(C(=O)Cc1ccc(Cl)c(Cl)c1)[C@H]1CC[C@@]2(CCCO2)C[C@@H]1N1CCCC1	inactive: 4.35%
CN(C)C(=O)c1cc([N+](=O)[O-])cc2c1-c1c(cc([N+](=O)[O-])cc1[N+](=O)[O-])C2=O	active: 70.9%
O=[N+]([O-])c1ccc2c(c1)nnn2O	inactive: 8.67%
O=P(Nc1nccs1)(c1ccccc1)c1nc2ccccc2s1 (configuration not stated)	inactive: 17.7%
O=P(Nc1nccs1)(Oc1ccccc1)Oc1ccccc1	inactive: -0.79%
CCOP1(=S)c2c(C)nn(CCC#N)c2N=C(c2ccccc2F)N1C (configuration not stated)	inactive: 3.05%
CS(=O)(=O)c1cc([N+](=O)[O-])c2no[n+]([O-])c2c1	active: 39.7%
O=C(O)COc1ccc([As](=O)(O)O)cc1[N+](=O)[O-]	inactive: -0.31%
Nc1ccccc1[As](=O)(O)c1ccccc1	inactive: -3.43%
Nc1cccc2c([As](=O)(O)O)cccc12	active: 93.8%
Cc1ccc(NCCc2c([N+](=O)[O-])cc([N+](=O)[O-])cc2[N+](=O)[O-])cc1	active: 54.7%
CCCOP(=S)(Nc1nc(N)cc(=O)[nH]1)OCCC	inactive: -2.36%
CCOP(=O)(Nc1cccc2ccccc12)OCC	inactive: 1.14%
COc1cc(C2NCCC3(OCCO3)C2(C)C)cc(OC)c1OC (configuration not stated)	inactive: 4.52%
O=C(OC1CN2CCC1CC2)c1ccc(Cl)cc1 (configuration not stated)	inactive: -3.85%
CS(=O)(=O)c1ccc(Cl)c(NC(=O)COC(=O)C(O)(c2ccccc2)c2ccccc2)c1	inactive: 29.4%
COc1cc(C(=O)NCC2(N3CCOCC3)CCCCC2)cc(Cl)c1OC(C)C	inactive: -2.16%
O=[As](O)(O)c1cccnc1	inactive: -5.04%
O=[As](O)(c1cccc(O)c1)c1cccc(O)c1	inactive: 5.56%
Cc1cccc(OCC(=O)OC2CN3CCC2CC3)c1 (configuration not stated)	inactive: 20.9%
C[C@@H]1C=CCP(=O)(Oc2ccccc2)O1 (some centres not stated)	inactive: 3.24%
C[C@H]1OP(=O)(Oc2ccccc2)C[C@@H]2O[C@@H]21 (some centres not stated)	inactive: 2.25%
CC(=O)c1ccc(N2CC2c2ccncc2)cc1 (configuration not stated)	inactive: 10.5%
CC(=O)Nc1ccc(Oc2c([N+](=O)[O-])cc([N+](=O)[O-])cc2[N+](=O)[O-])cc1	inactive: 2.66%
CC(=O)Nc1ccc([As](=O)(O)O)c(O)c1	inactive: 4.04%
CCOc1ccc(C2=NCC(CBr)S2)cc1 (configuration not stated)	inactive: 4.89%

Compound	inhibition
O=P1(Nc2nc3ccc(Cl)cc3s2)COc2ccccc2O1 (configuration not stated)	inactive: 3.26%
CC(C)(C)C(=O)NC(Sc1ccccc1)C(Cl)(Cl)Cl (configuration not stated)	inactive: 10.2%
CCC(=O)N1C2C3N(C(=O)CC)C1C1N(C(=O)CC)C(C(N1C(=O)CC)N3C(=O)CC)N2C(=O)CC	inactive: -1.21%
O=C(OC1CN2CCC1CC2)c1ccccc1 (configuration not stated)	inactive: 5.59%
Cc1ccc(OP(=O)(Nc2ccccn2)Oc2ccc(C)cc2)cc1	inactive: 3.41%
CC(=O)NC(SC(=S)N(CC(C)C)CC(C)C)C(Cl)(Cl)Cl (configuration not stated)	inactive: -1.1%
COC(=O)c1cc2c(s1)N=C(c1ccccc1)N(C)P2(=O)N1CCOCC1 (configuration not stated)	inactive: 0.14%
CN(C)C(=O)Oc1noc2ccccc12	inactive: 7.25%
Cc1ccccc1OP(=O)(Nc1ccccn1)Oc1ccccc1C	inactive: -1.84%
CCOC(=O)NC(Sc1ccccc1)C(Cl)(Cl)Cl (configuration not stated)	inactive: -0.01%
Cc1ccc(NP(=O)(Oc2cccc(C)c2)Oc2cccc(C)c2)nc1	inactive: 1.46%
c1ccc(-c2nn[nH]n2)c(-c2nn[nH]n2)c1	inactive: 1.66%
O=C(NC1CCS(=O)(=O)C1)NP(=S)(Oc1ccccc1)Oc1ccccc1 (configuration not stated)	inactive: 2.71%
CCNC(=S)/N=C(\N)N[N+](=O)[O-]	inactive: 3.26%
O=[As](O)(c1ccccc1)c1ccc(O)cc1	inactive: -14.9%
O=[N+]([O-])c1ncn(CCn2cnc([N+](=O)[O-])n2)n1	inactive: 0.79%
CC(=O)NC(SC(=S)N(C)C)C(Cl)(Cl)Cl (configuration not stated)	inactive: -1.08%
O=[N+]([O-])c1ccc(O)c(/C=N/Nc2ccc([N+](=O)[O-])cc2[N+](=O)[O-])c1	inactive: 4.33%
O=C(OC1CN2CCC1CC2)c1cccc(Cl)c1 (configuration not stated)	inactive: -1.68%
Nc1ccc([As](=O)(O)c2ccc([N+](=O)[O-])cc2)cc1	inactive: -8.58%
C(Cc1nn[nH]n1)Cc1nn[nH]n1	inactive: 1.35%
CN(C)C1(CNC(=O)c2ccc(Cl)c(S(N)(=O)=O)c2)CCCCC1	inactive: 1.85%
O=P(Nc1ccccn1)(c1ccc(Br)cc1)c1ccc(Br)cc1	inactive: -2.66%
C[C@H]1OP(=O)(Oc2ccccc2)[C@H](O)[C@H](O)[C@H]1N=[N+]=[N-] (some centres not stated)	inactive: 5.13%
